Earlier results, collected in paper PMC6353895, “A C-terminal cysteine residue is required for peptide-based inhibition of the NGF/TrkA interaction at nM concentrations: implications for peptide-based analgesics” (Scientific Reports, 2019).

Test system: NGF
Settings: cited from earlier work
Source text: Since increased levels of NGF have been implicated in a number of pain states, including inflammatory and neuropathic pain[8], neurogenic overactive bladder and interstitial cystitis[9],[10], prostatitis, asthma[12] and cancer-induced bone pain[13], interest has focussed on creating novel analgesics by inhibiting the NGF/TrkA interaction. […] However to date, the most common NGF/TrkA intervention strategies have involved sequestering NGF with monoclona ...

Substance: Tanezumab: humanized IgG2 monoclonal antibody that binds NGF
- Binding to NGF: binds with high affinity and specificity to NGF
